Laboratory results reported in patent publication US20230112123A1.

Columns and labels:
[1] = target: CD47 (UniProt Q08722); assay: FACS binding; Raji cells; details: Fc fusion
[2] = target: CD47 (UniProt Q08722); assay: FACS binding; U266 cells; details: Fc fusion

EC50 [1]: 5.22 nM | EC50 [2]: 17.5 nM
Substance: IMM01 (SIRPalphaD1 mutant-Fc fusion protein)
